These results are taken from BindingDB's records for doi:10.1016/j.ejphar.2004.03.050 (Memorial Sloan-Kettering Cancer Center, 2004).

Sequences of proteins named here, by UniProt entry; tags and fusion partners are left off.
UniProt P79350, whole entry: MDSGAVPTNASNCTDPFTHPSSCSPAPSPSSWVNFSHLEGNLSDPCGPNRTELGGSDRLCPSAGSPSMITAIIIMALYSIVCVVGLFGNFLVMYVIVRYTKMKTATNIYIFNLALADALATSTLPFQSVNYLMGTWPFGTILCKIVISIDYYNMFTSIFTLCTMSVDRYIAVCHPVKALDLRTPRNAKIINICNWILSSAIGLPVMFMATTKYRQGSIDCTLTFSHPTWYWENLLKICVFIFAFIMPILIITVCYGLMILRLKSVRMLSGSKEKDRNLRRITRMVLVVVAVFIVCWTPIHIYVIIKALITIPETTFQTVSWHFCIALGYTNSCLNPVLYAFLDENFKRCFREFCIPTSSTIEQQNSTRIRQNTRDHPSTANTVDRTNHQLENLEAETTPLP

pKi: −log10 of the molar value.

For the test, the target named is Mu-type opioid receptor (Bos taurus, UniProt P79350).

What is called pKi is −log10 of the Ki, conventionally taken in molar units. Lower therefore signals a large Ki. `CN1CCC23c4c5ccc(O)c4OC2C(O)CCC3C1C5` (stereo unspecified) [CAS_509-60-4] gave a pKi of 8.89.
